Data on 2 substances can be found in US20050241012A1, “Multigene profiling in the kidney to tailor drug therapy” (priority 2003, published 2005).

One series deals with choroid plexus. As to the kind of experiment: Accumulation in isolated choroid plexus, confocal fluorescence microscopy, wild-type and Oat3−/− mice. Particulars: 1 μM FL or 2 μM FL-MTX, 45 min. From the text:
The CP is composed of capillary projections surrounded by a single layer of cells that protrude into the cerebrospinal fluid-filled ventricles of the brain. The orientation is such that the CSF bathes the apical membrane of the cell and the basal membrane is toward the underlying fenestrated capillary. (A and C) Transmitted light images of wild-type and Oat3^−/− CP, respectively, showing the tissue structure. (B and D) Corresponding fluorescence micrographs of the CP shown in (A) and (C). Confocal images were acquired 45 min after exposure to 1 μM FL in the aCSF medium. […] The positions of representative cells and capillaries (CUD) are indicated by arrows. A 20-μm bar is shown.
Fluorescence levels in cells and vessels of CP from 4 wild-type and 4 Out3^−/− mice were measured (n=5-10 adjacent cellular and capillary areas/CP). […] Data are given as mean ±S.E. for each animal.
Choroid plexus isolation. Adult male and female wild-type and Oat3^−/− mice were euthanized with CO2.
Confocal Fluorescence Microscopy. CP were imaged as using an inverted Zeiss model 510 laser scanning confocal microscope fitted with a 40μ water immersion objective (numeric aperture, 1.2). Samples were illuminated with the 488-nm line of an argon laser; a 510-nm dichroic filter was in the light path, and a long pass emission filter (515 nm) was positioned in front of the detector. […] For each CP, 5-10 adjacent cellular and capillary areas were selected. After background subtraction, the average pixel intensity for each area was calculated and the values reported graphically for each CP are the means ±S.E. for all selected areas (n˜5-10). Values reported in the text are mean ±S.E. of the individual mean values for each CP as determined above (n˜4-6 animals/group).

The target in another series is T1, mouse Oat3 (Mus musculus, UniProt O88909).
T1 sequence (O88909 1-537): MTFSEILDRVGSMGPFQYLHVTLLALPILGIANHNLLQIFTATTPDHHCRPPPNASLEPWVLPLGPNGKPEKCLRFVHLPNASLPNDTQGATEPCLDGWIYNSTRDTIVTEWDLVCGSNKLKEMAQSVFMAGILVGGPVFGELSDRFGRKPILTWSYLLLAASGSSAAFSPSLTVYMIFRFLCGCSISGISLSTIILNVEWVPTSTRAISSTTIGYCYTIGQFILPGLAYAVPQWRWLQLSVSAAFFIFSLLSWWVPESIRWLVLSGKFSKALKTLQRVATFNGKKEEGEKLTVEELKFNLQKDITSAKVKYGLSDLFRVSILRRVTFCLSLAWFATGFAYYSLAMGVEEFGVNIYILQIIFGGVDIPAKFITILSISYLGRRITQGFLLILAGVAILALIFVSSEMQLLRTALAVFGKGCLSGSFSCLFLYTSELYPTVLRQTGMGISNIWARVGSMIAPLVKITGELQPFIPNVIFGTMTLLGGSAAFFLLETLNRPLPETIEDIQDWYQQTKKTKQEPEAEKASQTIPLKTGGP
Particulars: 1 h uptake; 10 μM [3H]PAH, 90 nM [3H]estrone sulfate, 500 nM [3H]taurocholate. How it is done: FIG. 13 oocytes three days after injection with either mouse Oat1 or mouse Oat3 cRNA. Oocytes were randomly sorted into test groups and 1 h uptake determined.
Transport Assays-Xenopus oocyte isolation procedures and uptake assay. Ovaries were removed from tricaine methanesulfonate anesthetized adult female Xenopus laevis and follicle-free stage V and stage VI oocytes were isolated by treatment with collagenase A. After an overnight recovery period in Barth's buffer at 18° C., oocytes were microinjected with 20 ng of capped cRNA synthesized from linearized cDNA (mMessage mMachine in vitro transcription kit, Ambion, Inc., Austin, Tex.). […] Oocyte radioactivity was measured in disintegrations/min (dpm) in a Packard 1600TR liquid scintillation counter with external quench correction.

A further series deals with hepatic slices. In words: Hepatic tissue slice uptake assay, wild-type and Oat3−/− mice. Particulars: 1 h; male wild-type littermates. On the procedure:
Data were calculated as tissue to medium T/M ratios and are presented as mean values ±S. E. (3 slices, treatment).
Renal and hepatic tissue slice preparation and uptake assays were performed according to standard protocols. Four- to 6-month-old mice were euthanized by CO2 inhalation, and the liver and kidneys were immediately placed into freshly oxygenated ice-cold saline. Tissue slices (˜0.5 mm; ˜5-10 mg, wet weight) were cut with a Stadie-Riggs microtome and maintained in ice-cold modified Cross and Taggart saline (in mM: 95 NaCl, 80 mannitol, 5 KCl, 0.74 CaCl2, and 9.5 Na2PO4, pH 7.4). […] Conditions for the PAH experiments were optimized for Oat1 by the addition of 10 μM glutarate to the uptake buffer. After incubation the slices were removed from the uptake medium, blotted, weighed, dissolved in 1 ml of 1M NaOH, neutralized with 1 ml of 1M HCl, and assayed by liquid scintillation spectroscopy. Duplicate medium samples (50 μl) were also assayed, and data are presented as tissue to medium (T/M) ratios (i.e. dpm/mg of tissue divided by dpm/μl of medium).

For fluorescein-methotrexate [FL-MTX], the “capillary accumulation in CP from Oat3−/− mice compared with wild-type” value is given as “unchanged” in the series with choroid plexus, “No difference” in the series with choroid plexus (listed as FL-MIX) and “unchanged” in the series on choroid plexus (listed as fluorescein-methotrexate).
In the case of estrone sulfate, at mouse Oat3, the “mediated uptake in Oat3-expressing oocytes” value was “substantial”. The “difference in hepatic slice uptake between wild-type and Oat3−/− mice” value with hepatic slices was “lack of any significant difference”.
